# Like-named read-outs stand apart in the source and are kept apart here.
# Assays:
# [1] = tested on: OR47a; parameters: method as in earlier work; conditions: DoOR database value; ref DoOR; cited from earlier work
# [2] = target: T1, Drosophila OR13a (Drosophila melanogaster, UniProt Q9VXL0); assay: Calcium ion fluorescence (GCaMP6) assay, OR13a stable HEK293 cell line; assay type: cell-based; conditions: for DF norm AVERAGE OR13a: normalized fluorescence change, values below 0.05 threshold given as 0
# T1 construct: expressed in transfected cells
# T1 sequence (Q9VXL0 1-418): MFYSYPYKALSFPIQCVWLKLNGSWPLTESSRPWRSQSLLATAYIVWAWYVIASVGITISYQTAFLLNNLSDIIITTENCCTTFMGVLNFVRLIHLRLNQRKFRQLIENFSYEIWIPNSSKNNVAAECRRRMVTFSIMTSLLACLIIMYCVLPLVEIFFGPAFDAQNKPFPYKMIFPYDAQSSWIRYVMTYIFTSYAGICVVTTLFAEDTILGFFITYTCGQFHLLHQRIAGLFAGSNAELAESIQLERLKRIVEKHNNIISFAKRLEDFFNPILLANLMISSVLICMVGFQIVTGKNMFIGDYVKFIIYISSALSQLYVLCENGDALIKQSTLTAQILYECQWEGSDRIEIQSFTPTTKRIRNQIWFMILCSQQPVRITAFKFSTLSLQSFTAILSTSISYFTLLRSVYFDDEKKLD
# T1 sequence (Q9VNB5 1-486 partner): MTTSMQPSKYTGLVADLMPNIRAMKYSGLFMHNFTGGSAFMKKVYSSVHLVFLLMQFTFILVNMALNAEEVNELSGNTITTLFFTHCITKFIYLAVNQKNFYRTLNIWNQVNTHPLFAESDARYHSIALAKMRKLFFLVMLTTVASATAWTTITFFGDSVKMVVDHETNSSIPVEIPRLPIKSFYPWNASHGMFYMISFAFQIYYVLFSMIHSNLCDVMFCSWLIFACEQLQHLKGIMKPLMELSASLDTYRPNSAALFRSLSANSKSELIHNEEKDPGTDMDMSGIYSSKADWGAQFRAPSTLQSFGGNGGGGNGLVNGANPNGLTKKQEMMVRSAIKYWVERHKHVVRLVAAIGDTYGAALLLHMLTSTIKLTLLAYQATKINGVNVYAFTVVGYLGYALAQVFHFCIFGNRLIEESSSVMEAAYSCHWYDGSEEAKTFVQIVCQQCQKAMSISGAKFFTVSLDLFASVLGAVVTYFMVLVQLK
# Protocol: These VUAA1 normalized ∆F values were used to compare the different receptors and ligands.
# The concentration-dependent effect of the reference ligands on their cognate cell lines was examined in more detail. Twelve different ligand concentrations were measured on each cell line in an overall 0.01 μM to 100 μM concentration range with 5 repetitions with three technical replicates each time.
# Twelve thousand to 18,000 cells were plated into each well of a black wall, transparent bottom 384-well microplate (Greiner) 48 h or 72 h before the measurements and were simultaneously treated with 1 μg/mL doxycycline. […] The plate has 24 columns, thus we could record responses in up to eight different cell lines in each plate. On the day of the experiment, the growth medium was replaced with 20 µL assay buffer/well (140 mM NaCl, 5 mM KCl, 2 mM CaCl2, 1 mM MgCl2, 5 mM HEPES-Na, 20 mM glucose, pH 7.3, 340 mOsm). […] Baseline fluorescence (F0) was recorded for 5 s, after which 7 µL VOC buffer (140 mM NaCl, 5 mM KCl, 2 mM CaCl2, 1 mM MgCl2, 5 mM HEPES-Na, 31 mM glucose, 0.1% DMSO, pH 7.3, 340 mOsm) was injected into each well in one row and the fluorescence response was recorded for an additional 30 s, at a rate of one read/sec. VOC solutions (VOC buffer with 4× concentration of the final measured VOC concentration, 9 µL/well was injected) were measured on the same wells in a second round with the same protocol. Each individual concentration of a specific VOC sample was recorded in three wells for the same cell line on the same microplate. The raw data were exported in xls file format, F0 and FMAX values, and the fluorescence intensity changes (∆F) were calculated in Excel (Microsoft) (Supplementary file Data summary.xlsx) using the following equation: ΔF=FMAX-F0/F0 (see also Fig. 1C). On each plate, we recorded the response of each cell line to 50 µM VUAA1. The average of these ∆F values of each cell line were used to calculate the VUAA1-normalized values for the rest of the plate, by dividing VOC response ∆F values by the average VUAA1 response ∆F value of the corresponding OR cell line. Each VOC-OR combination was measured three times as technical replicates. […] The average of these replicates were used as one ∆F and VUAA1-normalized ∆F in the following analysis.
# In the next rows we tested the reference VOCs (or other VOCs known to activate the corresponding cell lines), in order to test if all cell lines are responsive. The remaining rows were used to test VOCs with unknown effect.
# The recorded FMAX, F0, ∆F, VUAA1-normalized ∆F values, as well as the OR name, the name of the tested sample, and the final concentration for each well were copied into supplementary file Data summary.xlsx, that was used to summarize all the plates recorded. Here, the averages of the measurements were calculated for each receptor-VOC-concentration combination.
# [3] = HEK293, read-out: OR13a Average response (VUAA1-normalized)
# [4] = HEK293, read-out: OR13a response (VUAA1-normalized response)
compound,measurement,setting,value
CC(=O)CCC=C(C)C [6-methyl-5-hepten-2-one],OR47a DoOR response,[1],0.10
same,activation at 1 µM,[2]; [3],0%
same,activation at 10 µM,[2]; [3],0%
same,activation at 100 µM,[2]; [3],0.768%
same,activation at 1 µM,[2]; [4],0%
same,activation at 10 µM,[2]; [4],0%
same,activation at 100 µM,[2]; [4],0%
same,DF norm AVERAGE OR13a,[2]; concentration 1,0
same,DF norm AVERAGE OR13a,[2]; concentration 10,0
same,DF norm AVERAGE OR13a,[2]; concentration 100,0

# Source: article PMC10709440, “High-throughput ligand profile characterization in novel cell lines expressing seven heterologous insect olfactory receptors for the detection of volatile plant biomarkers” (Scientific Reports, 2023)
